The source of these data is PubChem BioAssay AID1663 (Broad Institute, 2009).

The list shows a part of the results, in another mix than the full data. Calls of active or inactive are those of the source.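 How the source made its calls: active means mean replicate score, as percent of positive control, at or above 50; inconclusive means mean below 50 but at least one replicate at or above 50; inactive means mean and every replicate below 50.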

This assay can be described thus: inhibitors of platelet dense granule secretion, primary screen, cell-based, MLPCN, human platelets (AID 1663). The settings on record: human platelet-rich plasma, SFLLRN dense granule ATP release, luminescence; hits give high values;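 compounds screened at 7.5 µM in platelet-rich plasma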.
In general, inhibition refers to the drop in the measured response relative to a control, in per cent. For `NC(=O)c1cc([N+](=O)[O-])cc([N+](=O)[O-])c1N`, the inhibition is inactive: -2.32%. As for `Cc1ccc(N/C(=N/P(=O)(N2CCOCC2)N2CCOCC2)N2CCOCC2)cc1`, the figure is inactive: -17.6%.

Take `Cc1ccc(OP(=O)(Nc2nccs2)Oc2ccc(C)cc2)cc1`: the inhibition was inactive: -6.82%. With `COc1ccccc1OP(=O)(Nc1ccc(C)cn1)Oc1ccccc1OC` the figure was inactive: 11.1%; with `Clc1ccc(Cl)c(NC2=NCC(CBr)S2)c1` (stereo not given), inactive: 0.13%; with `CN1CCCC(OC(=O)C(c2ccccc2)c2ccccc2)C1` (stereo not given), inactive: -1.57%.

Regarding `CC(C)CC(=O)NC(Sc1ccc(Cl)cc1)C(Cl)(Cl)Cl` (stereo not given), the inhibition was inactive: 1.32%.

Consider `Nc1cc(N)c2nonc2c1[N+](=O)[O-]`, for which the inhibition was inactive: -12%. For `Cc1c2non([O-])c-2c(C)[n+](=O)[n+]1[O-]`, the inhibition was inactive: -5.07%.

In the case of `O=C(NC(Sc1ccncn1)C(Cl)(Cl)Cl)c1ccccc1` (stereo not given), the inhibition was inactive: 3.27%. As for `Oc1ccccc1CNc1ccccn1`, the figure is inactive: -0.163%; as for `O=C(O)c1ccccc1[As](=O)(O)O`, inactive: 2.03%. With `CC(=O)Nc1ccc([As](=O)(O)O)cc1` the figure was inactive: -0.0823%; with `O=P(Nc1nc2ccc(Cl)cc2s1)(c1ccccc1)c1ccccc1`, inactive: 11.2%; with `Cc1ccc(NP(=O)(Oc2ccccc2F)Oc2ccccc2F)nc1`, inactive: -7.47%. With `CN(C(=O)Cc1ccc(Cl)c(Cl)c1)[C@H]1CCCC[C@@H]1N1CCCC1` the figure was inactive: -0.711%; with `CCOP(=O)(Nc1ccccc1)OCC`, inactive: -0.329%; with `Cc1cc(SC(NC(=O)c2ccc(F)cc2)C(Cl)(Cl)Cl)ncn1` (stereo not given), inactive: 19%.

As for `O=[N+]([O-])c1cc([N+](=O)[O-])c(CCN2CCOCC2)c([N+](=O)[O-])c1`, the inhibition was inactive: 9.11%. For the compound `CCN(N=Nc1nonc1N)c1nonc1N`, the inhibition is inactive: -44.4%. As for `Nc1cccc2ccc([As](=O)(O)O)cc12`, the figure is inactive: 2.14%; as for `O=C(Nc1cc([As](=O)(O)O)ccc1O)c1ccccc1`, inactive: -3.24%. Take `CC(C)(C)C(=O)NC(Sc1ccncn1)C(Cl)(Cl)Cl` (stereo not given): the inhibition was inactive: 0.765%. With `O=[N+]([O-])c1ncn(CCn2ncnc2[N+](=O)[O-])n1` the figure was inactive: -7.66%; with `O=[N+]([O-])c1cccc(NC2=NCC(CBr)S2)c1` (stereo not given), inactive: 4.68%. Turning to `O=C(O)CNc1ccc([As](=O)(O)O)cc1`, the inhibition was inactive: -0.0323%. As for `COc1ccc(C2=NCC(CBr)S2)cc1` (stereo not given), the figure is inactive: 30.6%; as for `O=[N+]([O-])c1cccc2n[nH]nc12`, inactive: 0.5%. As for `CC(=O)N1C2C3N(C(C)=O)C1C1N(C(C)=O)C(C(N1C(C)=O)N3C(C)=O)N2C(C)=O`, the figure is inactive: -14.8%; as for `CCc1nc2c(n1)c1c(non1O)c1c2no[n+]1[O-]`, inactive: 27.3%; as for `O=[N+]([O-])c1cc([N+](=O)[O-])c(CCNc2ccccc2)c([N+](=O)[O-])c1`, inactive: -5.53%.

With `Cc1ccc(NP(=O)(Oc2ccccc2)Oc2ccccc2)nc1`, the inhibition was inactive: -3.21%. `C[N+]1=C2C=CC=CC=C2SC12C([N+](=O)[O-])=CC([N+](=O)[O-])=C[C-]2[N+](=O)[O-]` (stereo not given): the inhibition is inactive: 14.9%. As for `Nc1ccc([As](=O)(O)c2ccc(N)cc2)cc1`, the figure is inactive: 0.676%. As for `CCN(/C(=N/P(=O)(N1CCOCC1)N1CCOCC1)N1CCOCC1)c1ccc(OC)cc1`, the figure is inactive: 3.89%; as for `CN(C)C(=O)OCCc1n(C)cc[n+]1C`, inactive: 9.62%. As for `CC(C)=N/N=C(\N)N[N+](=O)[O-]`, the figure is inactive: 3.41%. In the case of `CC1CCN(C(=O)Oc2c(Cl)cc(Cl)c3cccnc23)CC1`, the inhibition is inactive: -0.37%. As for `CC(C)C(=O)NC(Sc1ccccc1)C(Cl)(Cl)Cl` (stereo not given), the figure is inactive: 3.3%; as for `O=P(Nc1nccs1)(c1ccccc1)c1ccccc1`, inactive: -20.1%. As for `c1nnnn1CCn1cnnn1`, the figure is inactive: 1.01%; as for `O=P(Nc1ccccn1)(c1ccc(Br)cc1)c1ccc(Br)cc1`, inactive: -0.0148%. As for `CN(C)C1(CNC(=O)c2ccc(Cl)c(S(N)(=O)=O)c2)CCCCC1`, the figure is inactive: 6.43%; as for `C[C@H]1OP(=O)(Oc2ccccc2)[C@H](O)[C@H](O)[C@H]1N=[N+]=[N-]` (stereo not given in full), inactive: 4.7%. `O=P(Nc1nc2ccccc2s1)(c1ccccc1)c1ccccc1`: the inhibition is inactive: -8.02%. With `O=[N+]([O-])c1ccc(O)c(/C=N/Nc2ccc([N+](=O)[O-])cc2[N+](=O)[O-])c1` the figure was inactive: -0.688%; with `CC(=O)NC(SC(=S)N(C)C)C(Cl)(Cl)Cl` (stereo not given), inactive: -2.3%; with `O=[N+]([O-])c1ncn(CCn2cnc([N+](=O)[O-])n2)n1`, inactive: 0.884%. As for `O=[As](O)(c1ccccc1)c1ccc(O)cc1`, the figure is inactive: -2.68%; as for `Nc1ccc([As](=O)(O)c2ccc([N+](=O)[O-])cc2)cc1`, inactive: 5.62%; as for `C(Cc1nn[nH]n1)Cc1nn[nH]n1`, inactive: 5.06%.

Take `O=C(OC1CN2CCC1CC2)c1cccc(Cl)c1` (stereo not given): the inhibition was inactive: -1.83%. With `CCNC(=S)/N=C(\N)N[N+](=O)[O-]` the figure was inactive: 1.18%. With `O=C(NC1CCS(=O)(=O)C1)NP(=S)(Oc1ccccc1)Oc1ccccc1` (stereo not given) the figure was inactive: 6.05%; with `Cc1ccc(NP(=O)(Oc2cccc(C)c2)Oc2cccc(C)c2)nc1`, inactive: -11.2%. On to `CCOC(=O)NC(Sc1ccccc1)C(Cl)(Cl)Cl` (stereo not given), for which the inhibition was inactive: -3.58%. As for `c1ccc(-c2nn[nH]n2)c(-c2nn[nH]n2)c1`, the figure is inactive: 2.48%; as for `CC(=O)NC(SC(=S)N(CC(C)C)CC(C)C)C(Cl)(Cl)Cl` (stereo not given), inactive: 0.54%.

With `Cc1ccc(OP(=O)(Nc2ccccn2)Oc2ccc(C)cc2)cc1`, the inhibition is inactive: 1.58%.

In the case of `COC(=O)c1cc2c(s1)N=C(c1ccccc1)N(C)P2(=O)N1CCOCC1` (stereo not given), the inhibition was inactive: 1.57%. As for `CCC(=O)N1C2C3N(C(=O)CC)C1C1N(C(=O)CC)C(C(N1C(=O)CC)N3C(=O)CC)N2C(=O)CC`, the figure is inactive: 1.53%. With `O=C(OC1CN2CCC1CC2)c1ccccc1` (stereo not given) the figure was inactive: -7.29%; with `CN(C)C(=O)Oc1noc2ccccc12`, inactive: 1.45%. With `Cc1ccccc1OP(=O)(Nc1ccccn1)Oc1ccccc1C` the figure was inactive: -3.25%. As to `CCOc1ccc(C2=NCC(CBr)S2)cc1` (stereo not given), the inhibition is inactive: 1.68%.

As to `O=P1(Nc2nc3ccc(Cl)cc3s2)COc2ccccc2O1` (stereo not given), the inhibition is inactive: -5.03%.

As for `CC(C)(C)C(=O)NC(Sc1ccccc1)C(Cl)(Cl)Cl` (stereo not given), the inhibition was inactive: 1.38%. With `CC(=O)c1ccc(N2CC2c2ccncc2)cc1` (stereo not given) the figure was inactive: -2.16%; with `C[C@@H]1C=CCP(=O)(Oc2ccccc2)O1` (stereo not given in full), inactive: -2.88%; with `C[C@H]1OP(=O)(Oc2ccccc2)C[C@@H]2O[C@@H]21` (stereo not given in full), inactive: 2.87%. With `CC(=O)Nc1ccc(Oc2c([N+](=O)[O-])cc([N+](=O)[O-])cc2[N+](=O)[O-])cc1` the figure was inactive: 0.648%; with `CC(=O)Nc1ccc([As](=O)(O)O)c(O)c1`, inactive: 1.59%; with `CS(=O)(=O)c1ccc(Cl)c(NC(=O)COC(=O)C(O)(c2ccccc2)c2ccccc2)c1`, inactive: -7.83%. `COc1cc(C(=O)NCC2(N3CCOCC3)CCCCC2)cc(Cl)c1OC(C)C`: the inhibition was inactive: 7.02%. As for `O=[As](O)(O)c1cccnc1`, the figure is inactive: -3.25%; as for `O=C(OC1CN2CCC1CC2)c1ccc(Cl)cc1` (stereo not given), inactive: 13.5%. As for `O=[As](O)(c1cccc(O)c1)c1cccc(O)c1`, the figure is inactive: 2.4%; as for `Cc1cccc(OCC(=O)OC2CN3CCC2CC3)c1` (stereo not given), inactive: 3.34%. With `CCCOP(=S)(Nc1nc(N)cc(=O)[nH]1)OCCC` the figure was inactive: 5.47%; with `Cc1ccc(NCCc2c([N+](=O)[O-])cc([N+](=O)[O-])cc2[N+](=O)[O-])cc1`, inactive: 6.69%; with `Nc1cccc2c([As](=O)(O)O)cccc12`, inactive: -45.2%.

With `CCOP(=O)(Nc1cccc2ccccc12)OCC`, the inhibition was inactive: -8.01%. As for `COc1cc(C2NCCC3(OCCO3)C2(C)C)cc(OC)c1OC` (stereo not given), the figure is inactive: -5.19%; as for `CS(=O)(=O)c1cc([N+](=O)[O-])c2no[n+]([O-])c2c1`, inactive: 1.36%.

As to `O=P(Nc1nccs1)(c1ccccc1)c1nc2ccccc2s1` (stereo not given), the inhibition is inactive: 2.58%.

In the case of `O=P(Nc1nccs1)(Oc1ccccc1)Oc1ccccc1`, the inhibition was inactive: -11.8%.

For the compound `CCOP1(=S)c2c(C)nn(CCC#N)c2N=C(c2ccccc2F)N1C` (stereo not given), the inhibition is inactive: -16.6%.

In the case of `Nc1ccccc1[As](=O)(O)c1ccccc1`, the inhibition is inactive: -3.98%. On to `O=C(O)COc1ccc([As](=O)(O)O)cc1[N+](=O)[O-]`, for which the inhibition is inactive: -0.836%. With `NC(=O)Nc1ccc([As](=O)(O)O)cc1` the figure was inactive: 0.572%. With `CN(C(=O)Cc1ccc(Cl)c(Cl)c1)[C@H]1CC[C@@]2(CCCO2)C[C@@H]1N1CCCC1` the figure was inactive: 10.6%; with `CN(C)C(=O)c1cc([N+](=O)[O-])cc2c1-c1c(cc([N+](=O)[O-])cc1[N+](=O)[O-])C2=O`, inactive: 4.99%. With `O=[N+]([O-])c1ccc2c(c1)nnn2O` the figure was inactive: -0.239%. On to `CCOP1(=S)c2c(C)nn(CCC#N)c2N=C(c2ccc(F)cc2)N1C` (stereo not given), for which the inhibition is inactive: 3.49%. Turning to `CN(C(=O)Cc1ccccc1)[C@@H]1CC[C@]2(CCCO2)C[C@H]1N1CCCC1`, the inhibition was inactive: 2.94%.

Regarding `N#CCCN(C(=O)COC(=O)C(O)(c1ccccc1)c1ccccc1)c1ccc(F)cc1`, the inhibition is inactive: -2.59%. As for `CC1CCC(C(C)C)C(OP(=O)(Nc2ccccn2)c2ccccc2)C1` (stereo not given), the figure is inactive: -2.52%; as for `Cc1ccc(C(=O)OC2CN3CCC2CC3)cc1` (stereo not given), inactive: 4.28%. With `Cc1nn(-c2ccccc2)c2c1P(=O)(N1CCOCC1)N(C)C(c1ccccc1)=N2` (stereo not given) the figure was inactive: -1.98%; with `O=C(/C=C/c1ccccc1)OC1CN2CCC1CC2` (stereo not given), inactive: -1.99%.
